Results published in patent US12570638B2, “Fused imidazole derivatives as AHR antagonists” (Sail Biomedicines, Inc., priority 2020, dated 2026).

The chains behind the UniProt entries cited, without tags or fusion partners. Residues count along the entry.
UniProt P35869, 11-848 limits assumed: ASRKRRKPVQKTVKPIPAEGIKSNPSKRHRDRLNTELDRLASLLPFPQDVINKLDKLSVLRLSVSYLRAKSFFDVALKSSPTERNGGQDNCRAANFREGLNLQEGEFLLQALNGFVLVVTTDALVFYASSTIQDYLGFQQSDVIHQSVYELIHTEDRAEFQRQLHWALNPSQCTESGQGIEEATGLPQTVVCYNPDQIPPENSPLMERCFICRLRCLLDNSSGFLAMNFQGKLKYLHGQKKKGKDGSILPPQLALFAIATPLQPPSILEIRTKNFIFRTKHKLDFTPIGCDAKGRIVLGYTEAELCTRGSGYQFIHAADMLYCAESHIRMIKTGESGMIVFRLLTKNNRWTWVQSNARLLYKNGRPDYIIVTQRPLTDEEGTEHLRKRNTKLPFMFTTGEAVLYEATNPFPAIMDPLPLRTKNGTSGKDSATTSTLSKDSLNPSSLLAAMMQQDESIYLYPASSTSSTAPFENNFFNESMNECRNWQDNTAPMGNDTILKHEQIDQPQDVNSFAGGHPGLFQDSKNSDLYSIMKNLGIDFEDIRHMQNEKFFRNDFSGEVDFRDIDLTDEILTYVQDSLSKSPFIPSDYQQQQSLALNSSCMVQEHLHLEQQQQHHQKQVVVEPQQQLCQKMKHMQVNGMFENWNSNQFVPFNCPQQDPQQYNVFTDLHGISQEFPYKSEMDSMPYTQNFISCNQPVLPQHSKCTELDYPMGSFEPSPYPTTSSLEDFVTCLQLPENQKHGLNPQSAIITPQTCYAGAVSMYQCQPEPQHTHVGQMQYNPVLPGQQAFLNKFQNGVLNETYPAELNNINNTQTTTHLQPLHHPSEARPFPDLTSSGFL

Key:
AHR = AHR (Homo sapiens, UniProt P35869); assay: DRE-Luciferase Reporter Assay (HepG2 AhR-Lucia reporter cells)
Text: AHR binds to Dioxin Responsive Elements (DRE) upstream of genes that it activates. One measure of AHR activity is activation of a reporter gene, such as luciferase, downstream of one or multiple DRE elements. Luciferase activity will reflect activation and inhibition of AHR in the cells expressing his reporter. 20000 Human HepG2 liver carcinoma—AhR-Lucia reporter cells or Human HT29 colon adenocarcinoma—AhR reporter cells or other cell line with a DRE-luciferase reporter stably transfected were plated in Eagle's Minimal Essential Medium, 10% heat-inactivated FBS, 1× non-essential amino acids Pen-Strep (10,000 U/mL) and Normocin (100 ug/mL) in plates (96-well, 384-well or other plates) and incubated overnight at 37° C. in a CO2 incubator and treated with and without AhR antagonists at a log dilution starting at 100 uM. […]
Cells were incubated for 24 or 48 hours or another time point and then, supernatant was analyzed for determination of luciferase activity as a read-out of the AHR activation or inhibition. Luciferase was measured with the commercial kit QUANTI-Luc™ assay solution kit from Invivogen following the manufacturer's instructions.
The level of luciferase with only agonist ligand added was the maximum signal while the luciferase with […] was the minimum signal. IC50 values were determined as the concentration which inhibits half of the luciferase activity.

[1] = Solubility Determination Assay (PBS, LC-MS/MS); settings: 2 hours
Procedure: The stock solutions of test compounds and control compound progesterone were prepared in DMSO at the concentrations of 10 mM. 15 μL of stock solution (10 mM) of each sample was placed in order into their proper 96-well rack. 485 μL of PBS pH 1.6 and pH 7.4 were added into each vial of the cap-less Solubility Sample plate. The assay was performed in singlet. One stir stick was added to each vial and then the vial was sealed using a molded PTFE/Silicone plug. The solubility sample plates were then transferred to the Eppendorf Thermomixer Comfort plate shaker and shaken at 25° C. at 1100 rpm for 2 hours. After completion of the 2 hours, plugs were removed and the stir sticks were removed using a big magnet. The samples from the Solubility Sample plate were transferred into the filter plate. Using the Vacuum Manifold, all the samples were filtered. An aliquot of 5 μL was taken from the filtrate followed by addition of 495 μL of a mixture of H2O and acetonitrile containing internal standard (1:1). […]
The plate was placed into the well plate autosampler. The samples were evaluated by LC-MS/MS analysis. […]
The filtrate was analyzed and quantified against a standard of known concentration using LC coupled with mass spectral peak identification and quantitation. Solubility values of the test compound and control compound were calculated as follows: […]

In the case of Cn1nccc1C(=O)Nc1ccc2nc(-c3cc(F)ccc3C(F)F)[nH]c2c1, the IC50 (AHR) is reported as < 0.1 µM.
For Cn1ncnc1C(=O)Nc1ccc2nc(-c3cc(F)ccc3C(F)F)[nH]c2c1, the “Aq. Solubility at pH = 1.6” value ([1]; PBS pH 1.6, 25° C.) was “+++ (“+++” indicates a solubility value equal to or greater than 10 μM)”, the “Aq. Solubility at pH = 7.4” value ([1]; PBS pH 7.4, 25° C.) was “++ (“++” indicates a solubility value between 1 and 10 μM)” and the IC50 (AHR; read-out: HepG2-Luc IC50, HepG2 AhR-Lucia reporter cells, luciferase activity with AHR activating ligand at EC50) was < 0.1 µM.

Where two headings read alike, the source gives them in different places.
